Our source for the inhibition values is PubChem BioAssay AID1021 (Emory University Molecular Libraries Screening Center, 2008).

Protein sequences, listed by entry. Tags and fused reporters are not part of them.
UniProt Q07820, whole entry, looked up: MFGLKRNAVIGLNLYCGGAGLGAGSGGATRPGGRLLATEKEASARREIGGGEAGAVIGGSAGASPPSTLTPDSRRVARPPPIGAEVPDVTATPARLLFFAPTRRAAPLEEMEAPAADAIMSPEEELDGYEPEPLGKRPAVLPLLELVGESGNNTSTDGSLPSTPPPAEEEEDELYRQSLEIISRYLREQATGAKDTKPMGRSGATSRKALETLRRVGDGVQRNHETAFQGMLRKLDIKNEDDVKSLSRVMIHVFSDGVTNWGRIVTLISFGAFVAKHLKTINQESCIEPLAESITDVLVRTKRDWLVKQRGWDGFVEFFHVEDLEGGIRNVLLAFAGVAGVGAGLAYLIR

Values joined by “and” are separate entries in the source; they are usually repeats but may differ in a detail not shown here. Equal values may be shown once. This is a selection; strong and weak results do not stand in their true shares. Active and inactive are the calls of the source.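 How the source made its calls: active means compounds that cut the binding signal by more than half at the single screening dose; inactive means the rest.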

The term inhibition denotes the change of the read-out against control, counted positive when it falls.

This assay concerns the target Induced myeloid leukemia cell differentiation protein Mcl-1 (Homo sapiens) (UniProt Q07820). Nature of the assay: Mcl-1/Bid binding inhibitors, primary screen, biochemical, TR-FRET, 1536-well (AID 1021).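 Further: His-tagged Mcl-1 with europium anti-His antibody binding Bid BH3 peptide; 0% = Mcl-1 plus peptide wells and 100% = peptide-only wells.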 Particulars: TR-FRET Mcl-1/Bid-Dy647 peptide binding, at 21.7 µM, stronger effect = higher value.
As to `CC(=O)Nc1ccc(Oc2c([N+](=O)[O-])cc([N+](=O)[O-])cc2[N+](=O)[O-])cc1`, the inhibition was inactive: -0.69%.

In the case of `CC(=O)Nc1ccc([As](=O)(O)O)c(O)c1`, the inhibition was inactive: -16.4%.

`C[C@H]1OP(=O)(Oc2ccccc2)C[C@@H]2O[C@@H]21` (some centres undefined): the inhibition was inactive: -51.9%.

Consider `C[C@@H]1C=CCP(=O)(Oc2ccccc2)O1` (some centres undefined), for which the inhibition was inactive: -42.4%.

For the compound `CC(C)(C)C(=O)NC(Sc1ccccc1)C(Cl)(Cl)Cl` (centres undefined), the inhibition is inactive: -13.5%.

As to `CCOc1ccc(C2=NCC(CBr)S2)cc1` (centres undefined), the inhibition is inactive: 11.4%.

With `O=P1(Nc2nc3ccc(Cl)cc3s2)COc2ccccc2O1` (centres undefined), the inhibition was inactive: -35.1%.

For the compound `O=c1c2cc([N+](=O)[O-])ccc2[nH]c2c([N+](=O)[O-])cc([N+](=O)[O-])cc12`, the inhibition is inactive: 4.89%.

Regarding `CN(C)C(=O)Oc1noc2ccccc12`, the inhibition was inactive: -9.72%.

`Cc1ccccc1OP(=O)(Nc1ccccn1)Oc1ccccc1C`: the inhibition was inactive: -6.37%.

As for `CC(=O)NC(SC(=S)N(CC(C)C)CC(C)C)C(Cl)(Cl)Cl` (centres undefined), the inhibition was inactive: 36.7%.

With `Cc1ccc(OP(=O)(Nc2ccccn2)Oc2ccc(C)cc2)cc1`, the inhibition is inactive: -6.73%.

For the compound `COC(=O)c1cc2c(s1)N=C(c1ccccc1)N(C)P2(=O)N1CCOCC1` (centres undefined), the inhibition was inactive: -10.8%.

With `CCC(=O)N1C2C3N(C(=O)CC)C1C1N(C(=O)CC)C(C(N1C(=O)CC)N3C(=O)CC)N2C(=O)CC`, the inhibition is inactive: -21.3%.

Take `CCNC(=S)/N=C(\N)N[N+](=O)[O-]`: the inhibition was inactive: -38.5%.

For `O=C(NC1CCS(=O)(=O)C1)NP(=S)(Oc1ccccc1)Oc1ccccc1` (centres undefined), the inhibition was inactive: -6.38%.

In the case of `Cc1ccc(NP(=O)(Oc2cccc(C)c2)Oc2cccc(C)c2)nc1`, the inhibition is inactive: -20.1%.

On to `CCOC(=O)NC(Sc1ccccc1)C(Cl)(Cl)Cl` (centres undefined), for which the inhibition was inactive: -21.4%.

Consider `c1ccc(-c2nn[nH]n2)c(-c2nn[nH]n2)c1`, for which the inhibition is inactive: 18.5%.

With `C(Cc1nn[nH]n1)Cc1nn[nH]n1`, the inhibition is inactive: 43.8%.

For the compound `Nc1ccc([As](=O)(O)c2ccc([N+](=O)[O-])cc2)cc1`, the inhibition is inactive: -21.5%.

For `O=C(OC1CN2CCC1CC2)c1cccc(Cl)c1` (centres undefined), the inhibition was inactive: -10.5%.

`CC(=O)NC(SC(=S)N(C)C)C(Cl)(Cl)Cl` (centres undefined): the inhibition is inactive: -18.8%.

With `O=[N+]([O-])c1ncn(CCn2cnc([N+](=O)[O-])n2)n1`, the inhibition is inactive: -10.3%.

`O=[As](O)(c1ccccc1)c1ccc(O)cc1`: the inhibition is inactive: -0.73%.

For `C[C@H]1OP(=O)(Oc2ccccc2)[C@H](O)[C@H](O)[C@H]1N=[N+]=[N-]` (some centres undefined), the inhibition is inactive: -40.2%.

For the compound `O=P(Nc1nc2ccccc2s1)(c1ccccc1)c1ccccc1`, the inhibition was inactive: -15.9%.

In the case of `O=P(Nc1ccccn1)(c1ccc(Br)cc1)c1ccc(Br)cc1`, the inhibition was inactive: -15.2%.

In the case of `c1nnnn1CCn1cnnn1`, the inhibition is inactive: -25.1%.

For the compound `CC(C)C(=O)NC(Sc1ccccc1)C(Cl)(Cl)Cl` (centres undefined), the inhibition is inactive: -25.4%.

For `O=P(Nc1nccs1)(c1ccccc1)c1ccccc1`, the inhibition is inactive: -20.5%.

`CN(C)C(=O)OCCc1n(C)cc[n+]1C`: the inhibition is inactive: -31.8%.

As to `CC(C)=N/N=C(\N)N[N+](=O)[O-]`, the inhibition is inactive: -13.3%.

Regarding `CC1CCN(C(=O)Oc2c(Cl)cc(Cl)c3cccnc23)CC1`, the inhibition was inactive: -10.9%.

On to `C[N+]1=C2C=CC=CC=C2SC12C([N+](=O)[O-])=CC([N+](=O)[O-])=C[C-]2[N+](=O)[O-]` (centres undefined), for which the inhibition is inactive: -58.4%.

Regarding `Nc1ccc([As](=O)(O)c2ccc(N)cc2)cc1`, the inhibition was inactive: -13.8%.

`CCN(/C(=N/P(=O)(N1CCOCC1)N1CCOCC1)N1CCOCC1)c1ccc(OC)cc1`: the inhibition is inactive: -16.3%.

`O=[N+]([O-])c1cccc2n[nH]nc12`: the inhibition is inactive: 36.5%.

As for `CC(=O)N1C2C3N(C(C)=O)C1C1N(C(C)=O)C(C(N1C(C)=O)N3C(C)=O)N2C(C)=O`, the inhibition was inactive: -7.77%.

Consider `CCc1nc2c(n1)c1c(non1O)c1c2no[n+]1[O-]`, for which the inhibition was inactive: -7.31%.

Regarding `O=[N+]([O-])c1cc([N+](=O)[O-])c(CCNc2ccccc2)c([N+](=O)[O-])c1`, the inhibition was inactive: -32.1%.

On to `Cc1ccc(NP(=O)(Oc2ccccc2)Oc2ccccc2)nc1`, for which the inhibition was inactive: -4.93%.

Turning to `COc1ccc(C2=NCC(CBr)S2)cc1` (centres undefined), the inhibition was inactive: -8.31%.

With `O=[N+]([O-])c1cccc(NC2=NCC(CBr)S2)c1` (centres undefined), the inhibition was inactive: 4.31%.

As to `O=C(O)CNc1ccc([As](=O)(O)O)cc1`, the inhibition is inactive: 3.14%.

As to `CC(C)(C)C(=O)NC(Sc1ccncn1)C(Cl)(Cl)Cl` (centres undefined), the inhibition was inactive: -58.5%.

In the case of `O=[N+]([O-])c1ncn(CCn2ncnc2[N+](=O)[O-])n1`, the inhibition was inactive: -2.7%.

Regarding `O=C(Nc1cc([As](=O)(O)O)ccc1O)c1ccccc1`, the inhibition is inactive: -40.4%.

Take `CCN(N=Nc1nonc1N)c1nonc1N`: the inhibition was inactive: -14.7%.

On to `Nc1cccc2ccc([As](=O)(O)O)cc12`, for which the inhibition is inactive: -26.3%.

In the case of `Cc1ccc(NP(=O)(Oc2ccccc2F)Oc2ccccc2F)nc1`, the inhibition was inactive: -13.8%.

Turning to `Cc1cc(SC(NC(=O)c2ccc(F)cc2)C(Cl)(Cl)Cl)ncn1` (centres undefined), the inhibition is inactive: -23.8%.

Regarding `CCOP(=O)(Nc1ccccc1)OCC`, the inhibition was inactive: -3.53% and inactive: 2.55%.

As for `CC(=O)Nc1ccc([As](=O)(O)O)cc1`, the inhibition is inactive: -3.74%.

As for `O=C(O)c1ccccc1[As](=O)(O)O`, the inhibition was inactive: -14.2%.

Turning to `O=P(Nc1nc2ccc(Cl)cc2s1)(c1ccccc1)c1ccccc1`, the inhibition was inactive: -80.7%.

`Nc1cc(N)c2nonc2c1[N+](=O)[O-]`: the inhibition is inactive: -9.44%.

Regarding `CC(C)CC(=O)NC(Sc1ccc(Cl)cc1)C(Cl)(Cl)Cl` (centres undefined), the inhibition was inactive: -11%.

As to `O=C(NC(Sc1ccncn1)C(Cl)(Cl)Cl)c1ccccc1` (centres undefined), the inhibition is inactive: -8.79%.

Take `Cc1c2non([O-])c-2c(C)[n+](=O)[n+]1[O-]`: the inhibition is inactive: 25.7%.

In the case of `Oc1ccccc1CNc1ccccn1`, the inhibition was inactive: -17.2%.

As to `Cc1ccc(OP(=O)(Nc2nccs2)Oc2ccc(C)cc2)cc1`, the inhibition was inactive: -17.1%.

In the case of `COc1ccccc1OP(=O)(Nc1ccc(C)cn1)Oc1ccccc1OC`, the inhibition was inactive: -26.3%.

For the compound `CN1CCCC(OC(=O)C(c2ccccc2)c2ccccc2)C1` (centres undefined), the inhibition is inactive: 5.71%.
